Source: PubChem BioAssay (National Center for Advancing Translational Sciences (NCATS))
Rows were chosen to be rich in hits. Some 16% of all compounds tested hit in one or more screens of this group.
TDP1 cell CPT – DT40-hTDP1 cell growth loss with CPT; AID 686979; 12% of 420,000 active; Potency, µM (titrated, usually from 46.2 µM), usual class: inhibitors; chicken DT40 Tdp1-/-;hTDP1 cells + 20 nM CPT, ATP luminescence, 48 h; further: nearly all actives have a fitted effect of over 55% in size
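Chicken DT40 Tdp1-/- cells stably complemented with human TDP1 were seeded at 400 cells/well in medium containing 20 nM camptothecin, exposed to pin-transferred compounds, and grown at 37 °C for at least 48 hr. Viability was read as ATP luminescence.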
uPA surface inh – cell surface uPA generation inhibition; cell surface uPA generation assay, qHTS; Potency, µM (top dose mostly 38.3 µM), actives largely listed as inhibitors; 0.31% of 330,000 active; active means well fitted inhibition curve with a large enough effect; inconclusive means small, poorly fitted or top-dose-only effect; inactive means no such curve, though single readings can be large or run the other way; tested in mouse RAW 264.7 cells; further: nearly all actives have a fitted effect of over 55% in size
TDP1 cell noCPT – qHTS for Inhibitors of human tyrosyl-DNA phosphodiesterase 1 (TDP1): qHTS in cells in absence of CPT; Potency, µM (highest dose often 46.2 µM), most hits filed as inhibitors; 15% of 420,000 active; DT40 Tdp1-/- hTDP1 cells, no CPT, ATP luminescence, 48 h; further: nearly all actives have a fitted effect of over 55% in size
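No-CPT arm: Tdp1-/-;hTDP1 DT40 cells (400/well) plus compounds, incubated ≥48 hr at 37 °C. Readout CellTiter-Glo luminescence.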
miR-21 reporter – miR-21 reporter, rising signal | 340,000 tested, under 10 active | AID 2288 | HeLa miR-21 FLuc reporter, luciferase, 48 h | Potency, µM (titrated, usually from 38.3 µM); active = well fitted rising curve with a large enough effect; inconclusive = small, poorly fitted or top-dose-only effect; inactive = no such curve, though single readings can be large or run the other way;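 further: miR-21 action dims this reporter so a rising signal means less miR-21 action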
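Luminescence from a firefly luciferase reporter carrying a miR-21 binding site downstream, stably expressed under a CMV promoter in HeLa cells that make miR-21 endogenously, reports miRNA modulation after 48 h compound exposure up to approximately 40uM final.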
TDP1 block – inhibitors of human tyrosyl-DNA phosphodiesterase TDP1. Q9NUW8. recombinant TDP1, AlphaScreen DNA substrate cleavage. Potency, µM (doses to about 130 µM), hits mostly inhibitors. 0.28% of 350,000 active. AID 485290; further: nearly all actives have a fitted effect of over 40% in size
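Signal: AlphaScreen proximity between streptavidin donor and anti-FITC acceptor beads on intact substrate. Reaction: Tdp1 1 nM, substrate 15 nM final, 5 min RT after 15 min compound preincubation.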
Each line names hits and unclear results; the compound was inactive in the other large screens. Unless noted, the call rests on the fitted dose curve; in most records, active means well fitted curve in the direction sought with a large enough effect; inconclusive means small, poorly fitted or top-dose-only effect, or another doubt; inactive means no such curve, though single readings can be large; an effect the other way counts as inactive or inconclusive.

COc1ccc(Cc2c(-c3ccc(F)cc3)nc3cc(C)c(Br)c(C)n23)c(C)c1	TDP1 cell CPT inconclusive, TDP1 cell noCPT 18µM (no result: uPA surface inh, miR-21 reporter, TDP1 block)
COc1ccc(Cc2c(-c3cccc(Br)c3)nc3cc(C)c(Br)c(C)n23)c(C)c1	none (no result: uPA surface inh, miR-21 reporter, TDP1 block)
COc1ccc(Cc2c(-c3ccc(C)cc3)nc3cc(C)c(Br)c(C)n23)c(C)c1	TDP1 cell CPT 2.3µM, TDP1 cell noCPT inconclusive (no result: uPA surface inh, miR-21 reporter, TDP1 block)
COc1cccc(NC(=O)CN(C)C(=O)c2ccc(COc3ccccc3)o2)c1	TDP1 cell CPT inconclusive, TDP1 cell noCPT inconclusive (no result: miR-21 reporter)
Cc1ccc(C)c(OCc2cc(C(=O)N3CCc4sccc4C3)no2)c1	TDP1 cell CPT 16µM, TDP1 cell noCPT 23µM
COc1cc(C)ccc1OCc1cc(C(=O)N2CCC(c3ccc(F)cc3)C2)no1 (stereo unspecified)	TDP1 cell CPT inconclusive, TDP1 cell noCPT 2.3µM
Cc1ccc(C)c(OCc2cc(C(=O)N3CCN(c4ccccc4C)CC3C)no2)c1 (stereo unspecified)	TDP1 cell CPT inconclusive, TDP1 cell noCPT inconclusive
Cc1ccc(C)c(OCc2cc(C(=O)N3CC[C@@H]4CCCC[C@H]4C3)no2)c1	TDP1 cell CPT inconclusive, TDP1 cell noCPT 26µM
CSc1ccccc1OCc1cc(C(=O)N2CCc3sccc3C2)no1	TDP1 cell CPT inconclusive
COCC1CCN(C(=O)c2cc(COc3ccc(F)cc3F)on2)C1 (stereo unspecified)	TDP1 cell noCPT inconclusive
Cc1ccc(C)c(OCc2cc(C(=O)N3CCN(c4ccccc4)CC3)no2)c1	TDP1 cell CPT inconclusive
Cc1ccc(C)c(OCc2cc(C(=O)N3C[C@@H](C)O[C@@H](C)C3)no2)c1	TDP1 cell CPT 16µM, TDP1 cell noCPT inconclusive
CC(C)(C)C1CCC(C(=O)Nc2ccc(N3CCOCC3)cc2N2CCOCC2)CC1 (stereo unspecified)	TDP1 cell CPT inconclusive, TDP1 cell noCPT inconclusive (no result: miR-21 reporter)
O=C(CN1CCOCC1)N1CCN(c2ccc([N+](=O)[O-])cc2)CC1	TDP1 cell noCPT inconclusive, TDP1 block inconclusive (no result: uPA surface inh)
CSc1nnc(CNS(=O)(=O)c2ccc(Br)cc2)n1C	none
CCN(CCn1cccn1)C(=O)c1cc(COc2cc(C)ccc2C)on1	TDP1 cell CPT 18µM, TDP1 cell noCPT inconclusive
CCN(CCn1cccn1)C(=O)c1cc(COc2ccccc2SC)on1	TDP1 cell CPT inconclusive, TDP1 cell noCPT inconclusive
COc1ccc(Cl)cc1NC(=O)Nc1ccc(C(=O)N2CCOCC2)cc1	none
O=C(O)CCS(=O)(=O)c1cccc2cccnc12	none
CCCCN(c1ccccc1)S(=O)(=O)c1cccc2cccnc12	TDP1 cell CPT inconclusive, TDP1 cell noCPT 15µM
CCSS(=O)(=O)c1cccc2cccnc12	TDP1 cell CPT 15µM, TDP1 cell noCPT inconclusive
CCCCN1CC(N2CCN(C)CC2)CS1(=O)=O (stereo unspecified)	none (no result: uPA surface inh, miR-21 reporter, TDP1 block)
CCN(C(=O)c1cn(-c2cccc(OC)c2)c(=O)c2ccccc12)c1ccccc1C	TDP1 cell CPT inconclusive, TDP1 cell noCPT inconclusive (no result: uPA surface inh)
Cc1cc(C)c(C(=O)/C=C/c2cccc3ccccc23)c(=O)[nH]1	TDP1 cell CPT 16µM, TDP1 cell noCPT 9.2µM, miR-21 reporter inconclusive
Cc1cc(C)c(C(=O)/C=C/c2ccc3c(c2)OCO3)c(=O)[nH]1	TDP1 cell CPT inconclusive, TDP1 cell noCPT inconclusive
Cc1csc(NC(=O)CSc2nc(C(C)C)nc3ccccc23)n1	TDP1 cell CPT inconclusive, TDP1 cell noCPT 12µM
CC(C)c1nc(SCC(=O)Nc2ccc(N(C)C)cc2)c2ccccc2n1	TDP1 cell CPT 23µM, uPA surface inh inconclusive, TDP1 cell noCPT inconclusive, miR-21 reporter inconclusive
CC(C)c1nc(SCC(=O)Nc2nccs2)c2ccccc2n1	none
CN(C)/C=N/c1nc2ccc3c(c2s1)CCCC3	TDP1 cell CPT inconclusive
O=C(CCC1CCCCC1)NCc1cccs1	none
c1ccc(C[n+]2csc3ccccc32)cc1	TDP1 cell CPT 1µM, TDP1 cell noCPT 1µM (no result: uPA surface inh)
c1ccc2c(c1)sc[n+]2CCC1CCCCC1	TDP1 cell CPT 5µM, TDP1 cell noCPT 2.5µM (no result: uPA surface inh, miR-21 reporter, TDP1 block)
C=C1c2ccccc2NC(=S)N1Cc1ccc2c(c1)OCO2	TDP1 cell noCPT 4.1µM
Cc1ccc(CN(Cc2ccccc2)C(=S)NCC(=O)NCc2cccnc2)o1	TDP1 cell CPT inconclusive
Cc1cccc(CSc2nnc(-c3ccco3)o2)c1	none
